We go through 61 molecules from PubChem BioAssay AID651711 (Broad Institute, 2012).

Protein sequences, listed by entry. Tags and fused reporters are not part of them.
UniProt Q15084, whole entry: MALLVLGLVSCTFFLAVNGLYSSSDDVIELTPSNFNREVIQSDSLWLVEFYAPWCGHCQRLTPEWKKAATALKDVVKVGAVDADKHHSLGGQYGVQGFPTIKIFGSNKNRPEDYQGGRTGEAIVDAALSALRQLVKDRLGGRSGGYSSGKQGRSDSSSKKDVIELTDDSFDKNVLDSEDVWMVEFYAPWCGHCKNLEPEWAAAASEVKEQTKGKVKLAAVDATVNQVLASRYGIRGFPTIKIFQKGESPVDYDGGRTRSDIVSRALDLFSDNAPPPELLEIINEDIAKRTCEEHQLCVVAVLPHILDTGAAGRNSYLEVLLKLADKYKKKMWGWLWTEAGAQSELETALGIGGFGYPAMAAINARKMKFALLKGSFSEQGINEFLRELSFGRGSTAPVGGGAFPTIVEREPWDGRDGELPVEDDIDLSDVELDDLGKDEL

Only a part is listed here, and it is no random draw. Some salts and complexes are drawn in separate pieces, as the source files them; their charges need not balance. Calls of active or inactive are those of the source.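 How the source made its calls: active means mean replicate inhibition above about 25%, with every replicate also reaching it (limit read from the data, passing the limit was not always enough); inconclusive means only one of those two criteria met; inactive means neither criterion met.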

As usually defined, the inhibition is the change of the read-out against control, counted positive when it falls.

In the experiment the target is Protein disulfide-isomerase A6 (Homo sapiens) (UniProt Q15084). Put plainly: ERp5 (PDIA6) reductase activity blockers – biochemical, turbidity, absorbance 650 nm, single point, primary screen (AID 651711). Conditions: ERp5 insulin aggregation, 90 min, at 9.99 µM, hits give high values.
For `CCN(CC)CCCNc1ccccc1[N+](=O)[O-].O=[N+]([O-])c1cc([N+](=O)[O-])c(O)c([N+](=O)[O-])c1`, the inhibition was inactive: 3.18%.

For `COc1ccc(OP(C)(=O)Nc2ccc(SC(F)(F)F)cc2)cc1` (stereo unspecified), the inhibition is inactive: -1.15%.

Turning to `Cc1c([N+](=O)[O-])cc([N+](=O)[O-])c(Br)c1[N+](=O)[O-]`, the inhibition is inactive: -3.39%.

`CCCCCOc1ccc(NP(C)(=O)Oc2ccc(Cl)cc2Cl)cc1` (stereo unspecified): the inhibition was inactive: 5.31%.

With `O=[N+]([O-])c1cc([N+](=O)[O-])c(OC2CCCCC2O)c([N+](=O)[O-])c1` (stereo unspecified), the inhibition is inactive: 1.84%.

In the case of `O=[N+]([O-])c1cc([N+](=O)[O-])c(Nc2ccc(Cl)cc2)c([N+](=O)[O-])c1`, the inhibition was inactive: -2.93%.

Turning to `CP(=O)(Nc1ccccc1F)Oc1ccccc1` (stereo unspecified), the inhibition is inactive: 1.67%.

For the molecule `CC(C)c1ccc(OP(C)(=O)Nc2ccc(SC(F)(F)F)cc2)cc1` (stereo unspecified), the inhibition is inactive: 5.31%.

`O=C(OC1CN2CCC1CC2)c1ccc([N+](=O)[O-])cc1` (stereo unspecified): the inhibition was inactive: -1.64%.

Regarding `O=C(OCCN1CCN(CCOCc2ccccc2)CC1)C(O)(c1ccccc1)c1ccccc1`, the inhibition is inactive: -3.57%.

In the case of `COc1ccc2c(c1O)-c1c(O)c(OC)cc3c1[C@H](C2)[N+](C)(C)CC3.O=[N+]([O-])c1cc([N+](=O)[O-])c([O-])c([N+](=O)[O-])c1[O-]`, the inhibition is inactive: 2.61%.

On to `CP(=O)(Nc1ccc(SC(F)(F)F)cc1)Oc1ccc(F)cc1` (stereo unspecified), for which the inhibition was inactive: 2.19%.

As for `CCOP(=O)(CC)OCC`, the inhibition is inactive: -10.7%.

In the case of `O=[N+]([O-])c1cc([N+](=O)[O-])c(C(F)(F)F)c([N+](=O)[O-])c1O`, the inhibition is inactive: 3.6%.

Regarding `COc1ccc(NP(C)(=O)Oc2ccccc2OC)cc1` (stereo unspecified), the inhibition is inactive: -0.291%.

As for `O=[N+]([O-])c1ccc(OP2(=O)COCCO2)cc1` (stereo unspecified), the inhibition was inactive: -0.645%.

As for `O=[N+]([O-])c1cc([N+](=O)[O-])c(NCC2CCS(=O)(=O)C2)c([N+](=O)[O-])c1` (stereo unspecified), the inhibition is inactive: 0.848%.

Turning to `Cc1cc(-c2cccc3ccccc23)c(C)cn1.O=[N+]([O-])c1cc([N+](=O)[O-])c(O)c([N+](=O)[O-])c1`, the inhibition was inactive: -6.45%.

With `Cc1c(C(c2ccc3c(c2)OCO3)c2c(C)n(C)n(-c3ccccc3)c2=O)c(=O)n(-c2ccccc2)n1C.O=[N+]([O-])c1cc([N+](=O)[O-])c(O)c([N+](=O)[O-])c1`, the inhibition is inactive: -6.53%.

In the case of `CCOC(=O)c1ccc(NP(C)(=O)Oc2ccc(Cl)cc2)cc1` (stereo unspecified), the inhibition was inactive: -0.662%.

Regarding `O=C(OCCCN1CCCC1)C(O)(c1ccccc1)C1CCCCC1` (stereo unspecified), the inhibition was inactive: -4.88%.

Turning to `CCc1ccc(OP(C)(=O)Nc2cccnc2)cc1` (stereo unspecified), the inhibition was inactive: 2.9%.

In the case of `COc1ccccc1OP(C)(=O)Nc1ccccc1Br` (stereo unspecified), the inhibition was inactive: -1.5%.

Consider `CN(C)C(=O)c1c([N+](=O)[O-])cc([N+](=O)[O-])cc1[N+](=O)[O-]`, for which the inhibition is inactive: 0.457%.

With `COc1ccccc1OP(C)(=O)Nc1ccc(Br)cc1` (stereo unspecified), the inhibition is inactive: -0.88%.

Consider `O=[N+]([O-])c1cc([N+](=O)[O-])c(Nc2ccccn2)c([N+](=O)[O-])c1`, for which the inhibition is inactive: 6.27%.

In the case of `Cc1cc(C)cc(OP(C)(=O)Nc2cccc(C(F)(F)F)c2)c1` (stereo unspecified), the inhibition was inactive: -7.51%.

As to `O=C1C(O)=C([N+](=O)[O-])C(=O)C(O)=C1[N+](=O)[O-]`, the inhibition is inactive: 0.408%.

Regarding `CP(=O)(OCCOc1ccccc1)OCCOc1ccccc1`, the inhibition was inactive: -0.955%.

For the molecule `CCCCCCCCCCCCCCCC1C[N+](C)(C)CCOP(C)(=O)O1` (stereo unspecified), the inhibition was inactive: 3.63%.

Regarding `CP(=O)(Nc1ccc(Cl)cc1Cl)Oc1ccccc1` (stereo unspecified), the inhibition is inactive: 2.07%.

In the case of `O=[N+]([O-])c1cc([N+](=O)[O-])c(Nc2cccnc2)c([N+](=O)[O-])c1`, the inhibition is inactive: -1.53%.

On to `O=[N+]([O-])c1ccc2c(c1)C=Nc1ccccc1O2`, for which the inhibition was inactive: 0.0345%.

For the molecule `Cc1cccc(C)c1OP(C)(N)=O` (stereo unspecified), the inhibition was inactive: 1.12%.

`CC(C)(C)c1ccc(OP(C)(=O)Nc2ccc(SC(F)(F)F)cc2)cc1` (stereo unspecified): the inhibition is inactive: 4.07%.

As for `Cc1cc(C)cc(OP(C)(N)=O)c1` (stereo unspecified), the inhibition was inactive: 4.18%.

In the case of `COc1ccccc1OP(C)(=O)Nc1cc(Cl)ccc1C` (stereo unspecified), the inhibition was inactive: 15.1%.

Consider `CCN(CC)CCCOC(=O)C(O)(c1ccccc1)c1ccccc1`, for which the inhibition was inactive: -4.4%.

Turning to `COc1ccccc1-c1ccccn1.O=[N+]([O-])c1cc([N+](=O)[O-])c(O)c([N+](=O)[O-])c1`, the inhibition is inactive: 2.06%.

As for `CP(=O)(Oc1ccccc1)OC(c1ccccc1)C(F)(F)F` (stereo unspecified), the inhibition is inactive: -0.895%.

Consider `CP(=O)(Nc1ccc(SC(F)(F)F)cc1)Oc1ccc(Cl)cc1` (stereo unspecified), for which the inhibition is inactive: -6.84%.

Take `CP(=O)(NC(=O)Nc1ccccc1)Oc1ccccc1` (stereo unspecified): the inhibition is inactive: 5.45%.

Consider `CCOC(=O)c1ccc(NP(C)(=O)Oc2ccc(OC)cc2)cc1` (stereo unspecified), for which the inhibition is inactive: -5.58%.

Consider `O=[N+]([O-])c1cc([N+](=O)[O-])c(O)c([N+](=O)[O-])c1.c1ccc(Oc2ccncc2)cc1`, for which the inhibition is inactive: -0.189%.

For `CP(=O)(Nc1ccccn1)Oc1ccc(Cl)cc1` (stereo unspecified), the inhibition was inactive: 3.44%.

Turning to `CP(=O)(Nc1ccccc1Br)Oc1ccccc1` (stereo unspecified), the inhibition was inactive: -2.77%.

As to `COc1ccccc1OP(C)(=O)Nc1ccccc1` (stereo unspecified), the inhibition was inactive: 1.74%.

With `CCOC(=O)C(CC)C1=NC(C)(C)Cc2ccccc21.O=[N+]([O-])c1cc([N+](=O)[O-])c(O)c([N+](=O)[O-])c1` (stereo unspecified), the inhibition was inactive: -5.4%.

In the case of `O=[N+]([O-])c1cc([N+](=O)[O-])c(Nc2nnnn2CCO)c([N+](=O)[O-])c1`, the inhibition was inactive: 3.13%.

Turning to `CN1CCCCC1COC(=O)C1(O)c2ccccc2CCc2ccccc21` (stereo unspecified), the inhibition is inactive: -6.25%.

As for `COc1ccc(-c2ccccn2)cc1.O=[N+]([O-])c1cc([N+](=O)[O-])c(O)c([N+](=O)[O-])c1`, the inhibition was inactive: -0.234%.

In the case of `CCCOc1ccc(NP(C)(=O)Oc2ccc(Cl)cc2)cc1` (stereo unspecified), the inhibition was inactive: -0.194%.

As to `O=[N+]([O-])c1cc([N+](=O)[O-])c(-n2nnc3ccccc32)c([N+](=O)[O-])c1`, the inhibition is inactive: -9.94%.

Consider `CN(Cc1cccnc1)C(=O)COc1ccc(Cl)c(Cl)c1.O=[N+]([O-])c1cc([N+](=O)[O-])c(O)c([N+](=O)[O-])c1`, for which the inhibition was inactive: -10.2%.

With `O=[N+]([O-])c1cc([N+](=O)[O-])c(-c2cnn(-c3ccccc3)c2)c([N+](=O)[O-])c1`, the inhibition was inactive: -0.352%.

On to `COc1ccccc1OP(C)(=O)Nc1cccc(Br)c1` (stereo unspecified), for which the inhibition is inactive: 7.63%.

For the molecule `CCOC(=O)c1ccc(NP(C)(=O)Oc2cc(C)cc(C)c2)cc1` (stereo unspecified), the inhibition is inactive: 0.175%.

In the case of `Cc1cc(C)cc(OP(C)(=O)Nc2ccc(C)cc2C)c1` (stereo unspecified), the inhibition was inactive: 2.18%.

Regarding `CP(=O)(Nc1cccc(Br)c1)Oc1ccccc1` (stereo unspecified), the inhibition was inactive: -3.42%.

For the molecule `Cc1cc(C)cc(OP(C)(=O)Nc2ccccn2)c1` (stereo unspecified), the inhibition was inactive: 4.11%.

Turning to `O=C(O)c1cccc(Nc2c([N+](=O)[O-])cc([N+](=O)[O-])cc2[N+](=O)[O-])c1`, the inhibition was inactive: -8.97%.
